Patent publication US20040009189A1, “Antimutagenic effects of ganoderma lucidum spores” (priority 2002, published 2004)

Tested on: mice bone marrow cell chromosomal aberration induced by cyclophosphamide
Conditions: CP 50 mg/kg alone (positive group 4); M; 500 cells
Description: The test used was the modified mice bone marrow cell micronucleus test as specified in “A Notice Concerning Issuance of the Revised Items of the ‘Health Food Functional Assessment Procedures and Testing Methods’,” a document from the Ministry of Public Health of the People's Republic of China, which is hereby incorporated by reference.
The mice were randomly divided by weight into 9 groups, 5 males and 5 females respectively per group. Animals in each group were given the following treatment:
The drug was prepared as a suspension of the required concentration in distilled water, and administered orally through tube at individual dosages of 0.2 mL/10 g of body weight. The negative control group was given distilled water of the equivalent volume through tube once a day for 30 days continuously. […] 4 hours before the mice were sacrificed they are given colchicine, and the bone marrow was extracted in order to prepare the chromosome samples in the routine way.
Samples from each group were observed. One hundred (100) metaphase cells per mouse were observed, and the chromosomal structures and the numbers of aberrations were recorded. Using SPSS for Windows 8.0 (t-test), a comparative analysis was made of the experimental data from the various dosage groups and the positive groups and tested to find out if there was any significant difference between the males and females within the group.

O=P1(N(CCCl)CCCl)NCCCO1 (stereo not shown) [CP, cyclophosphamide]
Cell Aberration Rate (%): *39.6%
